{
  "source": "patent US20230218631A1",
  "about": "(priority 2020, published 2023)",
  "system": "C57BL/6J male mice",
  "note": "This is a selection: effects in other tests are not listed, and their absence says nothing.",
  "data": [
    {"substance": "trans-(1R,2R)-3,4-Dichloro-N-methyl-N-[2-(1-pyrrolidinyl)cyclohexyl]-benzeneacetamide", "values": [
      {"measurement": "effect on ethanol drinking, low dose U50,488", "setting": "1.25 mg/kg i.p.", "result": "only modest effects"},
      {"measurement": "ethanol drinking, second exposure to high dose U50,488, Air-treated virus control group", "setting": "5 mg/kg i.p., Air-treated AAV-shSC, FIG. 3C", "result": "robust increase"},
      {"measurement": "ethanol drinking after U50,488 in virus control group (AAV-shSC)", "setting": "5 mg/kg i.p., second cohort, FIG. 4C", "result": "increased ethanol drinking"},
      {"measurement": "drinking levels after U50,488 in CIE-treated groups", "setting": "CIE-treated (dependent) mice, FIG. 3D", "result": "failed to increase drinking levels"}
    ]}
  ]
}
